Measured values published in ChEMBL document CHEMBL1123692, “Dopamine autoreceptor agonists: resolution and pharmacological activity of 2,6-diaminotetrahydrobenzothiazole and an aminothiazole analogue of apomorphine” (J Med Chem, 1987).

Tested on: Rattus norvegicus
Test: Percent difference of DA utilization when compared to saline at a dose of 10 mg/kg
Assay type: functional

CCCN[C@H]1CCc2nc(N)sc2C1.Cl.Cl
Difference: 131%
